The values that follow come from patent US10787490B2.

The chains behind the UniProt entries cited, without tags or fusion partners. Residues count along the entry.
UniProt F1LX96, 1-639: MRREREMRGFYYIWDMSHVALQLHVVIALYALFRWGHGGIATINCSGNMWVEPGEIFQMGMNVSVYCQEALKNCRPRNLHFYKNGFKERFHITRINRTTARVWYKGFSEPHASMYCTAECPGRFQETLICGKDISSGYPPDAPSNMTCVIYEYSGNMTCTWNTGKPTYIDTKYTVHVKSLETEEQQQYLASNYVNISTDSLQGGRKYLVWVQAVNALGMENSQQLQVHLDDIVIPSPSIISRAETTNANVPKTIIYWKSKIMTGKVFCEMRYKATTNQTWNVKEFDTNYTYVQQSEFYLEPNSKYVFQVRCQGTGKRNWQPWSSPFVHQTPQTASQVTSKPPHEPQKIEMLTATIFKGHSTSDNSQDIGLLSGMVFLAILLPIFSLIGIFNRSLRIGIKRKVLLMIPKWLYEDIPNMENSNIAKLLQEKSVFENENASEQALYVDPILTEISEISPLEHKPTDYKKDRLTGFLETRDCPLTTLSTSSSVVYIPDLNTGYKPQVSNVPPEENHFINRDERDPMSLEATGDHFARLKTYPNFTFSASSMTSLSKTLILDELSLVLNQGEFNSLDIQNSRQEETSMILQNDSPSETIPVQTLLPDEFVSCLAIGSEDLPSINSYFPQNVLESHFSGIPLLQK

Molecules are shown by their SMILES. Where two headings read alike, the source gives them in different places.

The target in this assay is Rat IL-23R (Rattus norvegicus, UniProt F1LX96). Briefly: Rat IL-23R Competitive Binding ELISA.
Where [1] appears, read: read-out: Rat IL23/IL23R ELISA IC50, Table E3H.

For the compound `CC(=O)N[C@H]1CSSC[C@@H](C(=O)N[C@@H](Cc2ccc(O)cc2)C(=O)N[C@@H](Cc2c[nH]c3ccccc23)C(=O)N[C@@H](CCCNC(=N)N)C(=O)N[C@H](C(=O)N[C@@H](Cc2ccccc2)C(=O)NCC(=O)NCCOCC(=O)N[C@H](CCCCN)C(N)=O)C(C)C)NC(=O)[C@H](CCC(N)=O)NC(=O)[C@H](Cc2c[nH]c3ccccc23)NC(=O)[C@H]([C@@H](C)O)NC(=O)[C@H](CCC(N)=O)N(C)C1=O`, the IC50 (read-out: Rat ELISA IL23/IL23R) was found to be 85 nM.

In the case of `CC(=O)N[C@H]1CSSC[C@@H](C(=O)N[C@@H](Cc2ccc(O)cc2)C(=O)N[C@@H](Cc2c[nH]c3ccccc23)C(=O)N[C@@H](CCCN)C(=O)N[C@@H](CN)C(=O)N[C@@H](Cc2ccccc2)C(=O)NCC(=O)NCCOCC(=O)N[C@H](CCCCN)C(N)=O)NC(=O)[C@H](CCC(N)=O)NC(=O)[C@H](Cc2c[nH]c3ccccc23)NC(=O)[C@H]([C@@H](C)O)NC(=O)[C@H](CCC(N)=O)NC1=O`, the IC50 (read-out: Rat ELISA IL23/IL23R) stood at 276 nM.

For the compound `CC(=O)N[C@H]1CSSC[C@@H](C(=O)N[C@@H](Cc2ccc(O)cc2)C(=O)N[C@@H](Cc2c[nH]c3ccccc23)C(=O)N[C@@H](CCCNC(=N)N)C(=O)N[C@H](C(=O)N[C@@H](Cc2ccccc2)C(=O)NCC(=O)NCCOCC(=O)N[C@H](CCCCN)C(N)=O)C(C)C)NC(=O)[C@H](CCC(N)=O)NC(=O)[C@H](Cc2c[nH]c3ccccc23)NC(=O)[C@H]([C@@H](C)O)NC(=O)[C@H](CCC(N)=O)NC1=O`, the IC50 (read-out: Rat ELISA IL23/IL23R) came out at 62 nM.

On to `CC(=O)N[C@H]1CSSC[C@@H](C(=O)N[C@@H](Cc2ccc(O)cc2)C(=O)N[C@@H](Cc2c[nH]c3ccccc23)C(=O)NC(C)(C)C(=O)N[C@@H](CCC(=O)O)C(=O)N[C@@H](CC(N)=O)C(=O)NCC(N)=O)NC(=O)[C@H](CCC(N)=O)NC(=O)[C@H](Cc2c[nH]c3ccccc23)NC(=O)[C@H]([C@@H](C)O)NC(=O)[C@H](CCC(N)=O)NC1=O`, for which the IC50 under setting [1] turned out to be 34 nM.

On to `CC(=O)N[C@@H]1C(=O)N[C@@H](CCCNC(=N)N)C(=O)N[C@@H]([C@@H](C)O)C(=O)N[C@@H](Cc2c[nH]c3ccccc23)C(=O)N[C@@H](CCC(N)=O)C(=O)N[C@H](C(=O)N[C@@H](Cc2ccc(O)cc2)C(=O)N[C@@H](Cc2c[nH]c3ccccc23)C(=O)N[C@@H](CCCNC(=N)N)C(=O)N[C@@H](CCCCN)C(=O)N[C@@H](Cc2ccccc2)C(=O)NCC(=O)NCCOCC(=O)N[C@H](CCCCN)C(N)=O)CSSC1(C)C`, for which the IC50 (read-out: Rat ELISA, Cys/Pen peptides) is 100 to 1000 nM.

For `CC(=O)NCCCC[C@H](NC(=O)[C@H](CCCCNC(=O)COCC(=O)NCCCC[C@H](NC(=O)[C@H](Cc1ccc2ccccc2c1)NC(=O)[C@H](Cc1ccc(OCCNC(C)=O)cc1)NC(=O)[C@H]1NC(=O)[C@H](CCC(N)=O)NC(=O)[C@H](Cc2c[nH]c3ccccc23)NC(=O)[C@H]([C@@H](C)O)NC(=O)[C@H](CCC(N)=O)NC(=O)[C@@H](NC(C)=O)C(C)(C)SSC1(C)C)C(=O)N[C@@H](CCCCNC(C)=O)C(=O)N[C@@H](CC(N)=O)C(=O)N[C@@H](CC(N)=O)C(N)=O)NC(=O)[C@H](Cc1ccc2ccccc2c1)NC(=O)[C@H](Cc1ccc(OCCNC(C)=O)cc1)NC(=O)[C@H]1NC(=O)[C@H](CCC(N)=O)NC(=O)[C@H](Cc2c[nH]c3ccccc23)NC(=O)[C@H]([C@@H](C)O)NC(=O)[C@H](CCC(N)=O)NC(=O)[C@@H](NC(C)=O)C(C)(C)SSC1(C)C)C(=O)N[C@@H](CC(N)=O)C(=O)N[C@@H](CC(N)=O)C(N)=O`, the IC50 (read-out: Rat ELISA, Pen-Pen dimers) lay in the range of 25 to 100 nM.

With `CC(=O)N[C@H]1CSSC[C@@H](C(=O)N[C@@H](Cc2ccc(O)cc2)C(=O)N[C@@H](Cc2c[nH]c3ccccc23)C(=O)N[C@@H](CCCNC(=N)N)C(=O)N[C@H](C(=O)N[C@@H](Cc2ccccc2)C(=O)NCC(=O)NCCOCC(=O)N[C@H](CCCCN)C(N)=O)C(C)C)NC(=O)[C@H](CCC(N)=O)NC(=O)[C@H](Cc2c[nH]c3ccccc23)NC(=O)[C@H]([C@@H](C)O)NC(=O)[C@H](CCCNC(N)=O)NC1=O`, the IC50 (read-out: Rat ELISA IL23/IL23R) worked out at 76 nM.

For `CC(=O)N[C@H]1CSSC[C@@H](C(=O)N[C@@H](Cc2ccc(O)cc2)C(=O)N[C@@H](Cc2c[nH]c3ccccc23)C(=O)N[C@@H](CCCNC(=N)N)C(=O)N[C@@H](CCCCN)C(=O)N[C@@H](Cc2ccccc2)C(=O)NCC(=O)NCCC(=O)N[C@H](CCCCN)C(N)=O)NC(=O)[C@H](C(C)C)NC(=O)[C@H](Cc2c[nH]c3ccccc23)NC(=O)[C@H](CC(=O)O)NC(=O)[C@H](C)NC1=O`, the IC50 (read-out: Rat ELISA IL23/IL23R) was 33 nM.

For the compound `CC(=O)N[C@H]1CSSC[C@@H](C(=O)N[C@@H](Cc2cccc3ccccc23)C(=O)N[C@@H](Cc2ccc3ccccc3c2)C(=O)N[C@@H](CCC(C)C)C(=O)N[C@@H](CCC(=O)O)C(=O)N[C@@H](CC(N)=O)C(=O)NCC(N)=O)NC(=O)[C@H](CCC(N)=O)NC(=O)[C@H](Cc2c[nH]c3ccccc23)NC(=O)[C@H]([C@@H](C)O)NC(=O)[C@H](CCC(N)=O)NC1=O`, under setting [1], the IC50 was 125 nM.

For the compound `CC(=O)N[C@@H](CCCNC(=N)N)C(=O)N[C@@H]1CCSC[C@@H](C(=O)N[C@@H](Cc2ccc(OCCN)cc2)C(=O)N[C@@H](Cc2ccc3ccccc3c2)C(=O)NC2(C(=O)N[C@@H](CCC(=O)O)C(=O)N[C@@H](CC(N)=O)C(=O)N[C@@H](CC(N)=O)C(N)=O)CCOCC2)NC(=O)[C@H](CCC(N)=O)NC(=O)[C@H](Cc2c[nH]c3ccccc23)NC(=O)[C@H]([C@@H](C)O)NC(=O)[C@@H](CCC(N)=O)NC1=O`, under “read-out: ELISA (nM) Rat, IC50, IL-23/IL-23R competitive binding, rat”, the IC50 was 2 nM.
